This note sets out measurements from ChEMBL document CHEMBL4354876, “A Selective Modulator of Peroxisome Proliferator-Activated Receptor γ with an Unprecedented Binding Mode” (J Med Chem, 2020).

By UniProt entry, the sequences of proteins in these tests, tags left out. Where a name states a change or a piece, a line headed by the entry shows the natural chain unless it says otherwise.
UniProt P37231: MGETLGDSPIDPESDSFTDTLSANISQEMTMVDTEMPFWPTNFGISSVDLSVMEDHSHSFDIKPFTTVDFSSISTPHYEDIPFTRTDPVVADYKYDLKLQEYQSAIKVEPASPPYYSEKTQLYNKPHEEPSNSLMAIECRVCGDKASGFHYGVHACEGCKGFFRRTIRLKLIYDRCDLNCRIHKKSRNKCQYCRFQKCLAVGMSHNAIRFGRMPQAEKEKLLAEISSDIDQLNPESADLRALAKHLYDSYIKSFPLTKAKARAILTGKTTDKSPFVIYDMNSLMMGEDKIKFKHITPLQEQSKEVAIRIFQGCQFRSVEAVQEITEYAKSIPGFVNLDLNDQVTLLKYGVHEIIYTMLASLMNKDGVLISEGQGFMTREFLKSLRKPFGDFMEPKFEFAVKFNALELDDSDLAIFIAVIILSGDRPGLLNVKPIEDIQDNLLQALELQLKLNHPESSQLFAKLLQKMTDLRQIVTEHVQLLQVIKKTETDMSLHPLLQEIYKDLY
UniProt Q03181: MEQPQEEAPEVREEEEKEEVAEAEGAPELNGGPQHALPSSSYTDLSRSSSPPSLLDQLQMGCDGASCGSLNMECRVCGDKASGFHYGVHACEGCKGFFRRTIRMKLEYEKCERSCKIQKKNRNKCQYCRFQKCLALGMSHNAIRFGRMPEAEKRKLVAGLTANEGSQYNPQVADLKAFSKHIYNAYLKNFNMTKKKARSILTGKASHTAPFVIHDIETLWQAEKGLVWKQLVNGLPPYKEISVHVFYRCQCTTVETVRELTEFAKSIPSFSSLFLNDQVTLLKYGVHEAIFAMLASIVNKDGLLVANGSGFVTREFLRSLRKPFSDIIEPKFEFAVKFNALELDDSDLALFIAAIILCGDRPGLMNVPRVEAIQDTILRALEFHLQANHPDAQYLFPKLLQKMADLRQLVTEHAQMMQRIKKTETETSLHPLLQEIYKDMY

For assay [1], the species on record is Homo sapiens. Kind of assay: Selectivity ratio of EC50 for partial agonist activity at Gal4-fused PPARalpha LBD (unknown origin) expressed in HEK293T cells to EC50 for partial agonist activity at Gal4-fused PPARgamma LBD (unknown origin) expressed in HEK293T cells. In kind it is cell-based.
The target of assay [2] is PPAR delta/gamma (Homo sapiens) (UniProt P37231+Q03181). The experiment in a line: Selectivity ratio of EC50 for partial agonist activity at Gal4-fused PPARdelta LBD (unknown origin) expressed in HEK293T cells to EC50 for partial agonist activity at Gal4-fused PPARgamma LBD (unknown origin) expressed in HEK293T cells. The class given is cell-based.

Consider `CCCCCCC(Sc1nc2ccc(NS(=O)(=O)c3ccc(Cl)cc3Cl)cc2s1)C(=O)O` (configuration not stated), for which the Ratio EC50 in assay [1] was found to be 250; in assay [2], 200.
